scFv variants of Ab-14 (light chain) against a SARS-CoV-2 spike peptide

The measurements come from Li et al. 2023 (doi:10.1038/s41467-023-39022-2) through the FLAb antibody collection.

All variants were tested on one target, the spike HR2 peptide PDVDLGDISGINAS (SARS-CoV-2).

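The parent was found by panning a naive human phage display library on the peptide. This is the validation round: designs drawn from the data on random variants, tested in the same kind of assay. Group labels follow the data file (Ctrl: baseline library sampled from a position-specific scoring matrix, with some repeated check sequences; En: ensemble of fine-tuned language models; GP: Gaussian process model; HC: hill climbing; Gen: genetic algorithm; Gibbs: Gibbs sampling; a sequence that several methods proposed may carry one label only). In AlphaSeq, yeast of one mating type display the scFv and yeast of the other type display the target. After mating in shaken culture at 30 °C for 16 h, diploids were selected and their barcode pairs sequenced. Read counts were normalised to the haploid input and turned into Kd by a linear fit to BCL2-family pairs of known affinity, for each replicate. Mating was done six times.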

The variants keep the heavy chain, the linker and the frameworks of Ab-14 (scFv order VH, a 15-residue (Gly4Ser)3 linker, VL).
VH: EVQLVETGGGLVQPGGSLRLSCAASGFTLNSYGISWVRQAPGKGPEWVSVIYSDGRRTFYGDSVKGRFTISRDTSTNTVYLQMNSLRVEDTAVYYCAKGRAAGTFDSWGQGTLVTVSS
VL: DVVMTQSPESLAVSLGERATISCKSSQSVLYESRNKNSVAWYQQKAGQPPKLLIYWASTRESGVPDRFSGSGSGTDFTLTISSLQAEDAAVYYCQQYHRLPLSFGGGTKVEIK

The whole VL of each variant is written out.
Values are log10 of the apparent Kd in nM; lower means stronger binding.
Replicates are averaged; those with no signal do not enter the mean.
A pair that was not seen in any replicate is written "no signal"; this usually means weak binding, but a binder can also be missed.
The authors averaged sequences with at least three values out of six and counted those with two or fewer as poor binders.
As a blank, each scFv also met three strains without target: over all light chain designs, 4% of these pairings were detected, typically at 2.64 and seldom below 1.59.
A sequence measured in both rounds can read differently, since the two assays cover different ranges.

| # | VL | group | mean, log10 nM | replicates with signal |
|---|---|---|---|---|
| 1 | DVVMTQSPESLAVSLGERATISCKFSQSELYEDRNKNSVAWYQQKAGQPPKLLIYNASQRESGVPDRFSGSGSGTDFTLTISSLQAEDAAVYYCQQYHRLPLSFGGGTKVEIK | GP_Gen | 0.07 | 6/6 |
| 2 | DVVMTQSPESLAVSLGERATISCTISDLMGHVSKQTHNVAWYQQKAGQPPKLLIYDQNTRNDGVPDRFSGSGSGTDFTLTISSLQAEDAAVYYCQQYNRLPLSFGGGTKVEIK | En_Gen | -0.23 | 6/6 |
| 3 | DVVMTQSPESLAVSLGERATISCKLSQSKLYESRNKNNVAWYQQKAGQPPKLLIYNASTRESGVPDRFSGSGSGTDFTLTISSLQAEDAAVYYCQQYHRLPLSFGGGTKVEIK | GP_Gen | -0.73 | 6/6 |
| 4 | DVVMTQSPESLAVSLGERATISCKLGQMTAIESRNLNSVAWYQQKAGQPPKLLIYQMDTRESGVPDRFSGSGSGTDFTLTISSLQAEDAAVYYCQQYDRLPLSFGGGTKVEIK | En_HC | 0.97 | 6/6 |
| 5 | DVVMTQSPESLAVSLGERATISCKSSQSVLLESRNKNSVAWYQQKAGQPPKLLIYWASTRESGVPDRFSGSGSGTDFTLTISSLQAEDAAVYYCQQYHRLPLSFGGGTKVEIK | Ctrl | 1.90 | 5/6 |
| 6 | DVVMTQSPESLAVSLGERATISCKSSQSVRYESRNKNNVAWYQQKAGQPPKLLIYYASTRESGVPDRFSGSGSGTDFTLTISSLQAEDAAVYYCQQYHRLPLMFGGGTKVEIK | Ctrl | 2.89 | 4/6 |
| 7 | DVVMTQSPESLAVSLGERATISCKSSESVLYESRNKGSVAWYQQKAGQPPKLLIYWASTRESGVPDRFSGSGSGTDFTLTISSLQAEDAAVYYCQQYARLPLSFGGGTKVEIK | Ctrl | 1.99 | 4/6 |
| 8 | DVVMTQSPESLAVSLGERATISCKLQQSVLYESRNKNSVAWYQQKAGQPPKLLIYDASTREDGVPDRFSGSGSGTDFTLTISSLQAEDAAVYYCQQYHRLPLSFGGGTKVEIK | GP_Gen | -0.41 | 6/6 |
| 9 | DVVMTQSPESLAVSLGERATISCMMSQVTGLGTRHRNNVAWYQQKAGQPPKLLIYQTSTREPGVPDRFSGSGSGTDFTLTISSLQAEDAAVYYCQQYDRLPLVFGGGTKVEIK | En_Gen | 0.84 | 6/6 |
| 10 | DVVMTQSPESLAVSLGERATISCKLMQSELYESRNKNSVAWYQQKAGQPPKLLIYEASQRESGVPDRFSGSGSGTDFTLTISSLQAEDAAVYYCQQYHRLPLSFGGGTKVEIK | GP_Gen | 0.00 | 6/6 |
| 11 | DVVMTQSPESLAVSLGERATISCKSSQEVLYESRNKNSVAWYQQKAGQPPKLLIYYASTRESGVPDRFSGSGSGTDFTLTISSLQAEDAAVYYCQQYHRLPLSFGGGTKVEIK | Ctrl | 1.09 | 3/6 |
| 12 | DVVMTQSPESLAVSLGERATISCKDSQSVEYERRNKNSVAWYQQKAGQPPKLLIYSASTRESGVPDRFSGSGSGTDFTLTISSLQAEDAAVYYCQQYHRLPLSFGGGTKVEIK | Ctrl | 0.16 | 6/6 |
| 13 | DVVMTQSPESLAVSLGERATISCMVTMELRYGDAWQNPIAWYQQKAGQPPKLLIYEASHLEVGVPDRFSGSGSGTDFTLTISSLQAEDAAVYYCQQYAHLPLGFGGGTKVEIK | En_Gibbs | 0.91 | 6/6 |
| 14 | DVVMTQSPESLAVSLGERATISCKISQSVDYESRNKNSVAWYQQKAGQPPKLLIYDASTRESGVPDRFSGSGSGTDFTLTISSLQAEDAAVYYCQQYHRLPLSFGGGTKVEIK | GP_Gen | 0.51 | 6/6 |
| 15 | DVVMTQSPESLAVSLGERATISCKLTFYMQGSNAMDNSIAWYQQKAGQPPKLLIYQTNIYHEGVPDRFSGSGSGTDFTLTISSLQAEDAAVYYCQQYGRLPLVFGGGTKVEIK | En_Gibbs | no signal | 0/6 |
| 16 | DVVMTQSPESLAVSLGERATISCKLPLATMVESVSKNNVAWYQQKAGQPPKLLIYELSTRGSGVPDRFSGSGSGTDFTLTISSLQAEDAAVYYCQQYHRLPLSFGGGTKVEIK | En_HC | 1.57 | 4/6 |
| 17 | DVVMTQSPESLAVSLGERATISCTLYGLSNSMSINKNNVAWYQQKAGQPPKLLIYEMSTREPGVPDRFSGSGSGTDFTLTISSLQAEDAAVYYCQQYDRLPLIFGGGTKVEIK | En_Gen | 0.56 | 6/6 |
| 18 | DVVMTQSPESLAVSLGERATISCKLDGSCQYESRNKNSVAWYQQKAGQPPKLLIYNASTRESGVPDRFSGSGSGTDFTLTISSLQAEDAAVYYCQQYHRLPLSFGGGTKVEIK | GP_Gibbs | 0.28 | 6/6 |
| 19 | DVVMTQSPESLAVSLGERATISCKSSQSVLYESRWGNSVAWYQQKAGQPPKLLIYEASTREVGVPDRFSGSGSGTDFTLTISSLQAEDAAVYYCQQYHRLPLSFGGGTKVEIK | Ctrl | 1.50 | 6/6 |
| 20 | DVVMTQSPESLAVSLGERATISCRLQAHMYDDQEHVNAIAWYQQKAGQPPKLLIYAGHDRAKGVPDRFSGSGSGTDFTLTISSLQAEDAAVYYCQQYQRLPLSFGGGTKVEIK | En_Gibbs | 1.30 | 6/6 |
| 21 | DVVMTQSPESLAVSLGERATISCKLSQGVLYESRNKNSVAWYQQKAGQPPKLLIYGASTRESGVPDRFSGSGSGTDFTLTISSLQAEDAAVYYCQQYHRLPLSFGGGTKVEIK | GP_Gen | -0.08 | 6/6 |
| 22 | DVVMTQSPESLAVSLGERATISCVLSQDHDERGMYCDNIAWYQQKAGQPPKLLIYDESCREPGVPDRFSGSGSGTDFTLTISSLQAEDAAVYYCQQYFHLPLIFGGGTKVEIK | En_Gibbs | 0.65 | 6/6 |
| 23 | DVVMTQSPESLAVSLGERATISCKSSISYLYESMNKNSVAWYQQKAGQPPKLLIYQASTRESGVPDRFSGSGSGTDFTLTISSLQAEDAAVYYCQQYHRLPLSFGGGTKVEIK | GP_HC | 0.32 | 6/6 |

Repeated from above, the 3 best binders with a signal in all replicates:

VL	group	mean, log10 nM	replicates with signal
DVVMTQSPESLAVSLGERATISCKLSQSKLYESRNKNNVAWYQQKAGQPPKLLIYNASTRESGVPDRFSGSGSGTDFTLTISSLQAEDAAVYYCQQYHRLPLSFGGGTKVEIK	GP_Gen	-0.73	6/6
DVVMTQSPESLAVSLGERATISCKLQQSVLYESRNKNSVAWYQQKAGQPPKLLIYDASTREDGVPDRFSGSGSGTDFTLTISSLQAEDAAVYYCQQYHRLPLSFGGGTKVEIK	GP_Gen	-0.41	6/6
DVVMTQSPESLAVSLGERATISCTISDLMGHVSKQTHNVAWYQQKAGQPPKLLIYDQNTRNDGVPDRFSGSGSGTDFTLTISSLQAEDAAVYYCQQYNRLPLSFGGGTKVEIK	En_Gen	-0.23	6/6